From PubChem BioAssay AID602318 (Sanford-Burnham Center for Chemical Genomics, 2012)
This is a selection; strong and weak results do not stand in their true shares. Activity calls are given as the source filed them. No stated cut-off is given here; in the data, active means inhibition above about 40%; inactive means the rest.

The chains behind the UniProt entries cited, without tags or fusion partners.
UniProt O00487, whole entry: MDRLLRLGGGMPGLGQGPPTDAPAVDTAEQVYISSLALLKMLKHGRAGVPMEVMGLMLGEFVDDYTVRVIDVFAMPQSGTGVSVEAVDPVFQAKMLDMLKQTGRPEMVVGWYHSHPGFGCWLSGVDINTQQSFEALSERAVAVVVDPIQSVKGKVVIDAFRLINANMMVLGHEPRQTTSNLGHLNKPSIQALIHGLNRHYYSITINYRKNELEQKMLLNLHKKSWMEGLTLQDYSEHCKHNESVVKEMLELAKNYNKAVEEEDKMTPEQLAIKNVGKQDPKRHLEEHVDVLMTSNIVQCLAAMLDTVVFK

Molecular target: 26S proteasome non-ATPase regulatory subunit 14 (Homo sapiens) (UniProt O00487)
Experiment: Rpn11 (PSMD14) deubiquitinase inhibitors, confirmation, biochemical, fluorescence polarization, single concentration (AID 602318)
Conditions: purified human 26S proteasome, Ub4-pepOG fluorescence polarization; at 20 µM; active compounds read high; proteasome pretreated with epoxomicin

SMILES | inhibition
CCCCCCCCCCCCCCCC1C[N+](C)(C)CCOP(C)(=O)O1 (stereo unspecified) | inactive: 39.7%
